Test system: MDCK-MDR1 cells
Assay: MDCK-MDR1 cell monolayer drug transport experiment (apparent permeability, model of blood-brain barrier)
Conditions: HBSS, 37° C., direction not given
Source text: MDCK-MDR1 cells were monolayer cells which highly express P-gp transporter after transfection of MDCK (Madin-Darby canine kidney epithelial cell) with MDR1 gene. Due to its density and high expression of efflux protein, the monolayer has similarity compared to blood-brain barrier (BBB) structure and now can be used as one of models for evaluating the ability of passing through BBB. In the invention, MDCK-MDR1 cells were used to study the membrane permeability of the compounds according to the invention, and to primarily evaluate its ability of passing through BBB.
The frozen MDCK-MDR1 cells were quickly thawed in a 37° C. water bath. […]
After washing with 37° C. […] The amount of Rho-123 permeated to the bottom well was determined by fluorospectrophotometer, wherein the emission wavelength was […], and the excitation wavelength was 530 nm. […]
The apparent permeability coefficient (Papp) of a drug reflects the ability of the drug to pass through cell monolayer and the drug absorption rate and extent. It can be calculated in accordance with the following equation: […]
wherein, Q represents the amount of drug permeated in the t period, A represents cell surface area, and represents the area (0.6 cm^2) of supporting film in this model, and C0 represents an initial concentration. The unit of Papp is expressed as cm·s^−1. […]

Papp (apparent permeability coefficient): 4.89 ×10⁻⁶ cm/s
Substance: Rhodamine 123 [reference compound]
